Here are results for one compound from patent US20070244123A1.

The chains behind the UniProt entries cited, without tags or fusion partners.
UniProt P15056, whole entry: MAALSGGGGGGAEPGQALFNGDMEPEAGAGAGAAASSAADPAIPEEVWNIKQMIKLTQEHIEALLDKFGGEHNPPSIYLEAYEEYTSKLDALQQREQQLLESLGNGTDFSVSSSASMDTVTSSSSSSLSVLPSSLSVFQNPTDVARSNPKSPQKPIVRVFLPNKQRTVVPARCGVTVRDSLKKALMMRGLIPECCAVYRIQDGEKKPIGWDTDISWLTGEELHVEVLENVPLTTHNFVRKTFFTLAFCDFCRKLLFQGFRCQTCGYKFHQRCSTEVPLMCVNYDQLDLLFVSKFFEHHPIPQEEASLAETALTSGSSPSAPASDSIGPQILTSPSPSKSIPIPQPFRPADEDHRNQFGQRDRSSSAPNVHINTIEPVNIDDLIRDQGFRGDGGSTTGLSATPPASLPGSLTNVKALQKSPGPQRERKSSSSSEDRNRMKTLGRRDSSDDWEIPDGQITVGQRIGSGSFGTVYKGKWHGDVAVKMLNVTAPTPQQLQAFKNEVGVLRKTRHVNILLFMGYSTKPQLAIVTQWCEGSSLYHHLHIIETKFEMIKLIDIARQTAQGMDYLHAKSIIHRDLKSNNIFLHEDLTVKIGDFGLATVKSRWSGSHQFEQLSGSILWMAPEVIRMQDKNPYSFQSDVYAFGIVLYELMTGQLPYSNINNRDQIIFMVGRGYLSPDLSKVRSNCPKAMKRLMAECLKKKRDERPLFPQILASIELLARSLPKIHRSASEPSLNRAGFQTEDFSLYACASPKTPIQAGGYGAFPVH

One test concerns human melanoma SKMEL2. In words: Methylene blue growth inhibition assay (Assay 2), SKMEL2. The protocol: (§1) Methylene Blue Growth Inhibition Assay (Assay 2)
(§2) Normal human foreskin fibroblasts (HFF), human melanoma (A375P, SKMEL2, SKMEL3 ) colon carcinoma (Colo 205) were cultured in the following growth media: A375P, Colo 205, Roswell Park Memorial Institute (RPMI) 1640 (Life Technologies 22400-089) containing 10% fetal bovine serum (FBS); HFF, Dulbecco's modified Eagle Medium (DMEM) (Life Technologies 12320-032) containing 10% FBS; SKMEL2 and SKMEL3, Minimum Essential Medium (MEM, Life Technologies 11095-080) containing 1× non-essential amino acids (Life Technologies 11140-050) and 10% FBS. Cells were harvested using 0.25 %trypsin/1 mM, EDTA, counted using a haemocytometer, and plated in 100 microliters of the appropriate media, at the following densities, in a 96-well tissue culture plate (Falcon 3075): HFF and A375P, 5,000 cells/well; all other cell lines, 10,000 cells/well. The next day, compounds were diluted in RPMI containing 100 micrograms/ml gentamicin, at twice the final required concentration, from 10 mM stock solutions in dimethyl sulphoxide (DMSO). One hundred microliters per well of these dilutions were added to the 100 microliters of media currently on the cell plates. RPMI containing 0.6% DMSO was added to control wells. […] Optical density at 620 nm was measured on a microplate reader. Percent inhibition of cell growth was calculated relative to vehicle treated control wells. […]

A further test addresses B-Raf (Homo sapiens, UniProt P15056). Nature of the test: Fluorescence anisotropy kinase binding assay (Assay 1). The conditions noted are these: read-out: B-Raf, nM Kd. An excerpt: Fluorescence Anisoptrophy Kinase Binding Assay
The concentration of kinase enzyme should preferably be ≦1× Kf. The concentration of fluorescent ligand required will depend on the instrumentation used, and the fluorescent and physicochemical properties. The concentration used must be lower than the concentration of kinase enzyme, and preferably less than half the kinase enzyme concentration. A typical protocol is:
All compounds are serially diluted in DMSO, then by a one step dilution into buffer of comparison, 50 mM HEPES, […] pH7.5, 1 mM CHAPS, 10 mM MgCL2, for the assay.
B-Raf Enzyme concentration: 1 nM
Fluorescent ligand concentration: 0.5 nM
Test compound concentration: 0.5 nM-100 uM
Components incubated in 10 ul final volume in LJL HE 384 type B black microtitre plate until equilibrium reached (Over 3 h, up to 30 h)
Fluorescence anisotropy read in an LJL Acquest fluorescence reader.
Definitions: Ki=dissociation constant for inhibitor binding
• Kf=dissociation constant for fluorescent ligand binding
The fluorescent ligand is the following compound: [drawing 7]
which is derived from 5-[2-(4-aminomethylphenyl)-5-pyridin-4-yl-1H-imidazol-4-yl]-2-chlorophenol and rhodamine green.
In general terms: In fluorescence polarisation assays a small probe gives low polarisation when free and higher when bound to something large.

For the next test, the system named is human melanoma SKMEL3. In words: Methylene blue growth inhibition assay (Assay 2), SKMEL3. How it is done:
as §1, §2

Another test has as its system human melanoma A375P. Nature of the test: Methylene blue growth inhibition assay (Assay 2), A375P. How it is done: as §1, §2
The subject of test [1] is human colon carcinoma (Colo 201) cells. Nature of the test: XTT 72 hr growth inhibition (Assay 3), Colo201. The conditions noted are these: Colo201, colorectal cancer, Assay 3, 72 hr. How it is done: XTT 72 hr Growth Inhibition Protocol for Mammalian Cultured Cells (Assay 3)
Human diploid foreskin fibroblasts (HFF) or human colon carcinoma (Colo 201) cells were grown in Dulbecco's modified Eagle's medium (DMEM) (Invitrogen/Life Technologies) containing 10% fetal bovine serum (FBS) and the antibiotics penicillin (100 Units/ml) and streotomycin (100 micrograms/ml) (Invitrogen/Life Technologies). Growth was at 37° C. in humidified 5% CO2 incubators in 75 cm^2 plastic flasks. Cells were harvested using 0.25% trypsin/1 mM ethylenediaminetetraacetic acid (EDTA), resuspended in growth medium, and counted using a hemocytometer. Flat-bottomed 96-well plates were seeded with 2×10^3 cells/well in a volume of 200 ul from trypsinized exponentially growing cultures. To “blank” wells, growth medium was added with no additions. Cells were incubated overnight to permit attachment.
Next day, medium from wells that contained cells was replaced with 180 microliters of fresh medium. Appropriate dilutions of test compounds were added to the wells from stock solutions of compound dissolved in dimethyl sulfoxide (DMSO); final DMSO concentration in all wells was 0.2%. […] Absorbance at 450 nm was then determined using a 96-well UV plate reader (Molecular Devices). Under these conditions, absorbance of untreated control cells at 450 nm was at least 1.0 optical density unit/ml. […]

For test [2], the system named is colon carcinoma (Colo 205). Nature of the test: Methylene blue growth inhibition assay (Assay 2), Colo205. The following applies: Colo205, colorectal cancer, B-Raf V599E, Ras wt, Assay 2, 3 days. How it is done: as §1, §2
The subject of test [3] is Normal human foreskin fibroblasts (HFF). In words: Methylene blue growth inhibition assay (Assay 2), HFF. The protocol: as §1, §2

Read-outs that look alike come from different tables or passages of the source.

As for `CN(C)CCN(C)C(=O)c1cc(-c2ccncc2)c(-c2ccc(Cl)c(O)c2)o1`, the IC50 in the test with human melanoma SKMEL2 (read-out: IC50 class SKMEL2, B-Raf wt, [Q61R]N-Ras, Assay 2, 3 days) is above 3 µM; in the test with human melanoma SKMEL2 (read-out: IC50 growth inhibition SKMEL2, B-Raf wt, [Q61R]N-Ras, Assay 2, 3 days), 6.2 µM; in the test on human melanoma SKMEL3 (read-out: IC50 class SKMEL3, B-Raf V599E, Ras wt, Assay 2, 3 days), above 3 µM; in the test with human melanoma SKMEL3 (read-out: IC50 growth inhibition SKMEL3, B-Raf V599E, Ras wt, Assay 2, 3 days), 4.3 µM; in the test with human melanoma A375P (read-out: IC50 class A375P, B-Raf V599E, Ras wt, Assay 2, 3 days), above 3 µM; in the test with human melanoma A375P (read-out: IC50 growth inhibition A375P, B-Raf V599E, Ras wt, Assay 2, 3 days), 9.8 µM. The IC50 in test [1] (read-out: IC50 class Colo201) was above 3 µM; in test [1] (read-out: IC50 growth inhibition Colo201) it was 12 µM; in test [2] (read-out: IC50 class Colo205) it was above 3 µM; in test [2] (read-out: IC50 growth inhibition Colo205), above 19 µM; in test [3] (read-out: IC50 class HFF, B-Raf wt, Ras wt, Assay 2, 3 days), above 3 µM; in test [3] (read-out: IC50 growth inhibition HFF, B-Raf wt, Ras wt, Assay 2, 3 days), above 30 µM. The Kd at B-Raf was determined as 18 nM.

As a reminder, the IC50 is the concentration that inhibits the measured activity by half. In general, Kd refers to a measure of binding affinity in units of concentration.
